Measured values from ChEMBL document CHEMBL4033632, “Design, synthesis and biological activity of novel donepezil derivatives bearing N-benzyl pyridinium moiety as potent and dual binding site acetylcholinesterase inhibitors” (Eur J Med Chem, 2017).

Amino acid sequences for entries named in this document (tags omitted).
UniProt P05067, whole entry: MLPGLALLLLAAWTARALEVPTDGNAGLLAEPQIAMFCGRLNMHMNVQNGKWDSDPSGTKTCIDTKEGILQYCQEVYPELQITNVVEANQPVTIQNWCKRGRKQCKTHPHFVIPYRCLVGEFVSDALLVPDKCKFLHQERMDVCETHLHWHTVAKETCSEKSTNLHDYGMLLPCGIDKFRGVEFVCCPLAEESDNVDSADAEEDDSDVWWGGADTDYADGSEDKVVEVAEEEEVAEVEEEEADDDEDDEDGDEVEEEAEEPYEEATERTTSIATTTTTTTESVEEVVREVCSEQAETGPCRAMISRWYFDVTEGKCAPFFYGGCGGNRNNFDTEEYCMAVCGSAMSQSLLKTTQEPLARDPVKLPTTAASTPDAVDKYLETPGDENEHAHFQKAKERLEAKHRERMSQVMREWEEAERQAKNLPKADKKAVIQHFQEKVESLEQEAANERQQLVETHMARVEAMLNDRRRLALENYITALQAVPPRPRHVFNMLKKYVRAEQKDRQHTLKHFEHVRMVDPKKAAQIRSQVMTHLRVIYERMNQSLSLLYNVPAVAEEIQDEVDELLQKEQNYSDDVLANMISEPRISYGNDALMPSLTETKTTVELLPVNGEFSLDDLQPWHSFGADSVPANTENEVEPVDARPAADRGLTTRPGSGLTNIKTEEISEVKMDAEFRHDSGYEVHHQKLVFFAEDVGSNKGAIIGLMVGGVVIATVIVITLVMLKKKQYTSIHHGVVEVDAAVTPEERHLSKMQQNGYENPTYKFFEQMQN

Target: Amyloid-beta precursor protein (Homo sapiens) (UniProt P05067)
Test: Inhibition of amyloid beta (1 to 42) (unknown origin) self-induced aggregation assessed as reduction in amyloid beta fibrils by transmission electron microscopic analysis

## COc1cc(/C=C/C(=O)CC(=O)/C=C/c2ccc(O)c(OC)c2)ccc1O
  inhibition: Active

Calls of active or inactive are those of the source. The rule behind the calls is not given here.
